According to ChEMBL document CHEMBL4342404, “Anti-cholinesterase hybrids as multi-target-directed ligands against Alzheimer's disease (1998-2018)” (Bioorg Med Chem, 2019):

Assays:
[1] = target: T1, Acetylcholinesterase (Rattus norvegicus) (UniProt P37136); assay: Potency index, ratio of tacrine IC50 to compound IC50 for rat cortex homogenate acetylcholinesterase
T1 sequence (whole entry): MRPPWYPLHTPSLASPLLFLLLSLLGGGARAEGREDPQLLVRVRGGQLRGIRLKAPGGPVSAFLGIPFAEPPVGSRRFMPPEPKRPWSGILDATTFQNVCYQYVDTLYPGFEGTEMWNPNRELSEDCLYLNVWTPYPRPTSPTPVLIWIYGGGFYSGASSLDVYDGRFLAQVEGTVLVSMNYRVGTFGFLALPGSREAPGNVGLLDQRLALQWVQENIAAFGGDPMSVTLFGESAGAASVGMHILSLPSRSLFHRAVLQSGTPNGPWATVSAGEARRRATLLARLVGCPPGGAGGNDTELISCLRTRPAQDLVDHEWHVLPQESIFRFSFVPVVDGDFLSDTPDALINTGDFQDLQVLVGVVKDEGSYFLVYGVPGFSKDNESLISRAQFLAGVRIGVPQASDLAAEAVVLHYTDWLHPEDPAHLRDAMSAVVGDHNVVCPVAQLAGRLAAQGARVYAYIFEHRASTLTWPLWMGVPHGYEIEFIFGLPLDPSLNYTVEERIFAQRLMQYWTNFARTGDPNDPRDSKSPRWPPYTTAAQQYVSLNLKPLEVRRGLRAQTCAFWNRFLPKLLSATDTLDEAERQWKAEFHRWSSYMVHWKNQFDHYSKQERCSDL

[2] = target: T1, Acetylcholinesterase (Rattus norvegicus); assay: Potency index, ratio of huperzine-A IC50 to compound IC50 for rat cortex homogenate acetylcholinesterase
[3] = target: Acetylcholinesterase and butyrylcholinesterase (AChE and BChE) (Rattus norvegicus) (UniProt P37136+Q9JKC1); assay: Selectivity ratio of IC50 for rat serum butyrylcholinesterase to IC50 for rat cortex homogenate acetylcholinesterase

What does the source list for `O=c1ccc2c([nH]1)CCCC2NCCCCCCCCCCNc1c2c(nc3ccccc13)CCCC2` (stereo not drawn)?
Ratio IC50 [1]: 25; Ratio IC50 [2]: 13; Ratio IC50 [3]: 9.3
